Reference: patent US9862679B2, “Potent and selective inhibitors of monoamine transporters; method of making; and use thereof” (priority 2013, dated 2018)
Read-outs that look alike come from different tables or passages of the source.

Amino acid sequences for entries named in this document (tags omitted). Residues count along the entry.
UniProt P31652, whole entry: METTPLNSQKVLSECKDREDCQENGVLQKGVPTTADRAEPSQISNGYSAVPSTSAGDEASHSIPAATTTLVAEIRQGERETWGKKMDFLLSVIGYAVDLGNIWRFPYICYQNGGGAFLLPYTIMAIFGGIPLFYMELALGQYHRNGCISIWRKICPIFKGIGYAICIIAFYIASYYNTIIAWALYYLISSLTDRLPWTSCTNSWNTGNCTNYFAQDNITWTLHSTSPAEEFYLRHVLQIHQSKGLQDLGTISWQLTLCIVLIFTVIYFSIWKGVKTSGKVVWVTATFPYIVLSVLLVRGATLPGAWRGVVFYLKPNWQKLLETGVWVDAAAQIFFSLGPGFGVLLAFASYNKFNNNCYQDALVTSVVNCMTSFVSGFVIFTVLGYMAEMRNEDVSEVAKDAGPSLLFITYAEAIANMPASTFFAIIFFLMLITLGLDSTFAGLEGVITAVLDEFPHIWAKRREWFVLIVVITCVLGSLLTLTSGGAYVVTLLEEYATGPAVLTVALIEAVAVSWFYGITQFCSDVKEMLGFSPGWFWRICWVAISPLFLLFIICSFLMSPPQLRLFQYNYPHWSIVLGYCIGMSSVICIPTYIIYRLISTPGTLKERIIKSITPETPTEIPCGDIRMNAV
UniProt P23977, whole entry: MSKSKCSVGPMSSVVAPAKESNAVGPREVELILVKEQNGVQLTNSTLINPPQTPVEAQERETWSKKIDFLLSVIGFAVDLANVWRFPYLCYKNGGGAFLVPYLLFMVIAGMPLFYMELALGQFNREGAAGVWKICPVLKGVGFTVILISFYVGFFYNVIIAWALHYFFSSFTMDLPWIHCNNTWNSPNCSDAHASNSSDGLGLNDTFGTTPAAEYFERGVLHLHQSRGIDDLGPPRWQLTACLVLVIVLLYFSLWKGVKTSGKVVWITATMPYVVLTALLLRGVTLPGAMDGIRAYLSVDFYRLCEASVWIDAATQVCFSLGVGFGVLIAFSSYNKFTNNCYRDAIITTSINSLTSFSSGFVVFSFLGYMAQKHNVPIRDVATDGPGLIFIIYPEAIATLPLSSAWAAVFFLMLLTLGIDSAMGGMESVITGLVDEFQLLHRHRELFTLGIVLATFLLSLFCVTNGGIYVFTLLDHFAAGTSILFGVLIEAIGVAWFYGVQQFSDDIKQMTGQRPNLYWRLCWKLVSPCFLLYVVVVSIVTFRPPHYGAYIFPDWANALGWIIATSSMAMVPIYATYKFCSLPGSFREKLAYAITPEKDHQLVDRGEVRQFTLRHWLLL
UniProt Q63380, 1-617: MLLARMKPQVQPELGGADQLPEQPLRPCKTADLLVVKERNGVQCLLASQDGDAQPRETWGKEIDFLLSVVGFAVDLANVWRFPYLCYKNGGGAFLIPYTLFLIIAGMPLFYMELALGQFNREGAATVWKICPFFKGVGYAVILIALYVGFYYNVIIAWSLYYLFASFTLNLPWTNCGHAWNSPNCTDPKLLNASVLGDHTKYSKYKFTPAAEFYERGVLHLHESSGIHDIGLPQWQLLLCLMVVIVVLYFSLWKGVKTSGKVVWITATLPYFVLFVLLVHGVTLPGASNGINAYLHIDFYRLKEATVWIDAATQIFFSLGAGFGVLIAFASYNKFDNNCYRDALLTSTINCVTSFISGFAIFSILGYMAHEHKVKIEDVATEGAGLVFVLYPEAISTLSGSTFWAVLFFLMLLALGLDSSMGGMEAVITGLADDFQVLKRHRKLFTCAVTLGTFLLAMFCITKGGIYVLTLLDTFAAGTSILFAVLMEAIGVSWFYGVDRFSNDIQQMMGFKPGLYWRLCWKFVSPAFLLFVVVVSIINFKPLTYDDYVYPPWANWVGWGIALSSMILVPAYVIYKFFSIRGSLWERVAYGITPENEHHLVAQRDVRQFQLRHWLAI

Legend:
[1] = Plasma pharmacokinetics in mice, 10 mg/kg i.v. and p.o.; conditions: male, CD1, mouse, in vivo
[2] = target: T1, serotonin transporter (SERT) (Rattus norvegicus (Rat), UniProt P31652); conditions: rat brain membranes
[3] = target: dopamine transporter (DAT) (Rattus norvegicus (Rat), UniProt P23977); test: Dopamine Transporter Binding Assay ([3H]WIN 35428, rat striatal membranes); conditions: for Ki: read-out: Ki (nM) ± S.E.M. DAT
[4] = target: T1, serotonin transporter (SERT); test: biochemical
[5] = target: norepinephrine transporter (NET) (Rattus norvegicus, UniProt Q63380); conditions: rat brain membranes
[6] = read-out: Ki (nM) ± S.E.M. SERT, Table 1 thioacetamides and sulfinylacetamides
[7] = ratio of Ki values, rat brain membranes
[8] = read-out: SERT Ki ± SEM, Table 5 piperazinyl derivatives

Fc1ccc(C(SCCNCCCc2ccccc2)c2ccc(F)cc2)cc1 [Compound 4g, N-(2-((bis(4-fluorophenyl)methyl)thio)ethyl)-3-phenylpropan-1-amine]
half-life [1]: ~60 min
half-life ([1]; iv): 59.8 min

CCCCNC(=O)CSC(c1ccc(F)cc1)c1ccc(F)cc1 [Compound 2s, 2-((Bis(4-fluorophenyl)methyl)thio)-N-butylacetamide]
Ki [2, 6]: 25800 nM

O=C(C[S+]([O-])C(c1ccc(Br)cc1)c1ccc(Br)cc1)NCCCc1ccccc1 (stereo not drawn) [Compound 3g, 2-(Bis(4-bromophenyl)methylsulfinyl)-N-(3-phenylpropyl)acetamide]
DAT:SERT ratio [3, 7]: 1.4

O=C(CSC(c1ccccc1)c1ccccc1)NCCCc1ccccc1 [Compound 2u, 2-(Benzhydrylthio)-N-(3-phenylpropyl)acetamide]
Ki [4]: > 100 µM

CCCCNCC[S+]([O-])C(c1ccccc1)c1ccccc1 (stereo not drawn) [Compound 5b, N-(2-(benzhydrylsulfinyl)ethyl)butan-1-amine]
NET/DAT selectivity ratio [3, 7]: 89
SERT/DAT selectivity ratio [3, 7]: 41

[O-][S+](CCN1CCN(CCCc2ccccc2)CC1)C(c1ccc(F)cc1)c1ccc(F)cc1 (stereo not drawn) [Compound 8b, 1-(2-((Bis(4-fluorophenyl)methyl)sulfinyl)ethyl)-4-(3-phenylpropyl)piperazine]
Ki [2, 8]: 678 nM

O=C(CSC(c1ccc(Br)cc1)c1ccc(Br)cc1)NCCCCc1ccccc1 [Compound 2z, 2-((Bis(4-bromophenyl)methyl)thio)-N-(4-phenylbutyl)acetamide]
SERT/DAT selectivity ratio [3, 7]: ≥ 241
Ki [3]: 414 ± 59.5 nM

CCCCNCCSC(c1ccccc1)c1ccccc1 [Compound 4e, N-(2-(benzhydrylthio)ethyl)butan-1-amine]
NET/DAT selectivity ratio [3, 7]: 36
SERT/DAT selectivity ratio [3, 7]: 18

OC(Cc1ccccc1)CN1CCN(CCSC(c2ccccc2)c2ccccc2)CC1 (racemic) [Compound 9g, 1-(4-(2-(Benzhydrylthio)ethyl)piperazin-1-yl)-3-phenylpropan-2-ol]
Ki [2, 8]: 1630 ± 169 nM

CCCNC(=O)CSC(c1ccc(Br)cc1)c1ccc(Br)cc1 [Compound 2n, 2-((Bis(4-bromophenyl)methyl)thio)-N-propylacetamide]
Ki [2, 6]: 8970 nM
Ki [3]: 592 ± 42.6 nM

CNC(=O)CSC(c1ccc(Cl)cc1)c1ccc(Cl)cc1 [Compound 2h, 2-((Bis(4-chlorophenyl)methyl)thio)-N-methylacetamide]
Ki [3]: 4240 nM

NC(=O)C[S+]([O-])C(c1ccccc1)c1ccccc1 (racemic) [(±)-modafinil, 2-[(diphenylmethyl)sulfinyl]acetamide, reference compound]
Ki ([5]; read-out: Ki (nM) ± S.E.M. NET, Table 1 thioacetamides and sulfinylacetamides): > 100000 nM

O=C(CSC(c1ccc(Br)cc1)c1ccc(Br)cc1)NCCCc1ccccc1 [Compound 2x, 2-((Bis(4-bromophenyl)methyl)thio)-N-(3-phenylpropyl)acetamide]
NET/DAT selectivity ratio [3, 7]: ≥ 149
SERT/DAT selectivity ratio [3, 7]: ≥ 249

O=C(CSC(c1ccc(Cl)cc1)c1ccc(Cl)cc1)NCCCc1ccccc1 [Compound 2w, 2-((bis(4-chlorophenyl)methyl)thio)-N-(3-phenylpropyl)acetamide]
Ki [4]: > 100 µM

CCCNC(=O)CSC(c1ccc(Cl)cc1)c1ccc(Cl)cc1 [Compound 2m, 2-((Bis(4-chlorophenyl)methyl)thio)-N-propylacetamide]
Ki [3]: 1250 nM

O=C(CSC(c1ccccc1)c1ccccc1)NCCCCc1ccccc1 [Compound 2y, 2-(Benzhydrylthio)-N-(4-phenylbutyl)acetamide]
Ki [2, 6]: > 100000 nM

O=C(CSC(c1ccccc1)c1ccccc1)N1CCN(CCCc2ccccc2)CC1 [Compound 11a, 2-(Benzhydrylthio)-1-(4-(3-phenylpropyl)piperazin-1-yl)ethan-1-one]
Ki [2, 8]: 9320 ± 932 nM
Ki ([5]; read-out: NET Ki ± SEM, Table 5 piperazinyl derivatives): 22600 ± 3010 nM

NCC[S+]([O-])C(c1ccccc1)c1ccccc1 (stereo not drawn) [Compound 5a, 2-(Benzhydrylsulfinyl)ethan-1-amine]
Ki [3]: 1110 nM

O=C(CSC(c1ccc(F)cc1)c1ccc(F)cc1)NCCCc1ccccc1 [Compound 2v, 2-((Bis(4-fluorophenyl)methyl)thio)-N-(3-phenylpropyl)acetamide]
Ki [3]: 452 ± 65.8 nM

NC(=O)CSC(c1cccc(Cl)c1)c1cccc(Cl)c1 [Compound 2e, 2-((Bis(3-chlorophenyl)methyl)thio)acetamide]
NET/DAT selectivity ratio [3, 7]: ≥ 123
